# Sampled rows, rich in hits. Any-hit rate of the full collection: about 0.43%.
# HCMV NEC inh: disrupts HCMV UL50-UL53 complex binding. 190,000 compounds, 0.15% hits. HTRF UL50-UL53 interaction, normalized percent inhibition. inhibition, % (no concentration beside the values); in the data active = inhibition above about 27%, passing the limit was not always enough
# GIV Gai3 FP: GIV-Galpha-i interaction inhibition. 210,000 compounds, 0.42% hits. percent of control (FP), % (no concentration beside the values). Galpha-i3/FITC-GIV peptide fluorescence polarization, 90 min; active compounds read low; scaled: aluminum fluoride 0%, vehicle 100%. AID 1224905. P08753;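 active = replicate mean at 85% of control or lower, very high polarization wells dropped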;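 note: wells of about 15 µL received 100 nL stock; the first replicate is given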
# GIV-Gai FP conf: GIV-Galpha-i3 inhibition, FP confirmation. shares compounds with GIV Gai3 FP. FITC-GIV peptide binding to Galphai3, fluorescence polarization; hits give low values. fluorescence polarization, mP at 100 µM. 580 compounds, 38% hits. AID 1259350;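 active = inhibition score of 15 or more, meaning 100 minus mean polarization as percent of control over three replicates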;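 note: lower mP means peptide displaced from Galphai3 so more inhibition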
# GIV-Gai AS conf: GIV-Galpha-i3 inhibition, AlphaScreen confirmation; shares compounds with GIV Gai3 FP; AlphaScreen Galphai3-GIV binding, purified proteins, 90 min; hits give low values; AlphaScreen counts at 100 µM; 580 compounds, 39% hits; AID 1259351;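 active = inhibition score at or above a set limit, where the score is 100 minus the three-replicate mean percent of control signal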
# * = called active by the depositor; / = not tested or not shown.
# Second line of a record – HCMV NEC inh, GIV Gai3 FP, GIV-Gai FP conf, GIV-Gai AS conf
- CCOc1cc(C2C(C(=O)OC(C)CC)=C(C)NC3=C2C(=O)CC(c2ccc(OC)cc2)C3)ccc1O (configuration not stated)
 : -22, 108, /, /
- CCN(CC)c1ccc(-c2c(C#N)c(N)nc(OC)c2C#N)cc1
 : -22, 31*, 84, 47104
- CCOc1ccccc1-c1c(C#N)c(N)nc(OC)c1C#N
 : -13, 103, /, /
- CCOC(=O)c1c(/N=c2\oc3c(OC)cccc3cc2C(N)=O)sc2c1CCCC2
 : -25, 103, /, /
- Cc1ccc(N(Cc2nc3nc(C)cc(=O)n3[nH]2)C(=O)c2ccc(F)cc2)cc1
 : -16, 103, /, /
- CC1=NN(c2cc(S(=O)(=O)O)c3cccc(S(=O)(=O)O)c3c2)C(=O)C1
 : /, 59*, 60, 2889*
- CC1=NN(c2cccc(C(F)(F)F)c2)C(=O)C1
 : -12, /, /, /
- Cc1csc(=Nc2ccccc2F)n1/N=C/c1ccncc1
 : -61, /, /, /
- COc1cccc(C2=N/C(=C\c3ccccc3OC)C(=O)N2c2ccc(C)cc2Br)c1
 : /, 114, /, /
- COc1cccc(C2=N/C(=C\c3ccccc3OC)C(=O)N2c2ccc(C)cc2C)c1
 : /, 73*, 68, 40847
- CC(=O)C1=C(C)OC(N)=C(C#N)C12C(=O)N(C)C1=C2CC=CC1 (configuration not stated)
 : /, 107, /, /
- COc1cc(C(c2c(C)[nH]n(-c3ccccc3)c2=O)c2c(C)[nH]n(-c3ccccc3)c2=O)ccc1O
 : /, 120, /, /
- Cc1[nH]n(-c2ccccc2)c(=O)c1C(c1ccc(N(C)C)cc1)c1c(C)[nH]n(-c2ccccc2)c1=O
 : /, 104, /, /
- CCOc1ccccc1C(c1c(C)[nH]n(-c2ccccc2)c1=O)c1c(C)[nH]n(-c2ccccc2)c1=O
 : /, 113, /, /
- CCCCCCCOc1ccc(C(c2c(C)[nH]n(-c3ccccc3)c2=O)c2c(C)[nH]n(-c3ccccc3)c2=O)cc1
 : /, 82*, 73, 41609
- Cc1[nH]n(-c2ccccc2)c(=O)c1C(c1cccc(O)c1)c1c(C)[nH]n(-c2ccccc2)c1=O
 : /, 66*, 51*, 11539*
- Cc1[nH]n(-c2ccccc2)c(=O)c1C(c1ccc(OCc2ccccc2Cl)cc1)c1c(C)[nH]n(-c2ccccc2)c1=O
 : /, 107, /, /
- COc1ccccc1C(c1c(C)[nH]n(-c2ccccc2)c1=O)c1c(C)[nH]n(-c2ccccc2)c1=O
 : /, 74*, 66, 42679
- Cc1[nH]n(-c2ccccc2)c(=O)c1C(c1ccccc1)c1c(C)[nH]n(-c2ccccc2)c1=O
 : /, 77*, 63, 18252*
- COc1ccc(NC(=O)CCc2nnc(C(=O)Nc3ccc(C)cc3)s2)c(OC)c1
 : 2, 113, /, /
- CCc1ccc2c(c1)c1nc3ccccc3nc1n2C
 : -3, 104, /, /
- CCOC(=O)c1[nH]c(C)c(CCC(=O)N2CCCC(C(=O)NC(C)C)C2)c1C (configuration not stated)
 : /, 99, /, /
- Cc1cc2n(n1)CCC(=O)N2C(C)C(=O)NCCc1ccc(Cl)cc1 (configuration not stated)
 : 2, 103, /, /
- CCOC(=O)c1c(NC(=O)C(C)Sc2nnc(CNC(=O)COc3ccc(Cl)cc3Cl)n2C)sc2c1CCCC2 (configuration not stated)
 : /, 105, /, /
- Cc1cccc(N2CCN(C(=O)C3CCN(c4ncnc5c4oc4ccccc45)CC3)CC2)c1C
 : /, 106, /, /
- CCn1c(=NC(=O)c2ccc(N(C)C)cc2)sc2cc(Cl)ccc21
 : -7, /, /, /
- CCn1c2ccccc2c2cc(CNCC(C)O)ccc21 (configuration not stated)
 : /, 106, /, /
- Cc1[nH]n(-c2ccccc2)c(=O)c1C(c1cccc(Br)c1)c1c(C)[nH]n(-c2ccccc2)c1=O
 : /, 74*, 68, 23480*
- Cc1[nH]n(-c2ccccc2)c(=O)c1C(c1cccc([N+](=O)[O-])c1)c1c(C)[nH]n(-c2ccccc2)c1=O
 : /, 103, /, /
- CCSc1nnc2c(n1)OC(c1ccc(C)cc1)Nc1ccccc1-2 (configuration not stated)
 : 3, 92, /, /
- CCSc1nnc2c(n1)OC(c1c(OC)ccc3ccccc13)Nc1ccccc1-2 (configuration not stated)
 : -38, -4.5*, 62, 32956*
- CCCSc1nnc2c(n1)OC(c1ccc(OCC(=O)O)cc1)Nc1ccccc1-2 (configuration not stated)
 : /, 103, /, /
- CCSc1nnc2c(n1)OC(c1ccc(Cl)cc1)Nc1ccccc1-2 (configuration not stated)
 : -7, 78*, 76, 28223
- CCCSc1nnc2c(n1)OC(c1ccc(F)cc1)Nc1ccccc1-2 (configuration not stated)
 : -10, 66*, 82, 31445

# Arranged by length of the SMILES (lowest first): 3 of the compounds above
# Second line of a record – HCMV NEC inh, GIV Gai3 FP, GIV-Gai FP conf, GIV-Gai AS conf
- CCSc1nnc2c(n1)OC(c1c(OC)ccc3ccccc13)Nc1ccccc1-2 (configuration not stated)
 : -38, -4.5*, 62, 32956*
- CCCSc1nnc2c(n1)OC(c1ccc(OCC(=O)O)cc1)Nc1ccccc1-2 (configuration not stated)
 : /, 103, /, /
- Cc1[nH]n(-c2ccccc2)c(=O)c1C(c1cccc([N+](=O)[O-])c1)c1c(C)[nH]n(-c2ccccc2)c1=O
 : /, 103, /, /

# Reformatted with bars between the fields: two of the compounds above.
Compound | HCMV NEC inh | GIV Gai3 FP | GIV-Gai FP conf | GIV-Gai AS conf
CCCSc1nnc2c(n1)OC(c1ccc(F)cc1)Nc1ccccc1-2 (configuration not stated) | -10 | 66* | 82 | 31445
CCCSc1nnc2c(n1)OC(c1ccc(OCC(=O)O)cc1)Nc1ccccc1-2 (configuration not stated) | / | 103 | / | /
